Results: patent US20250161287A1, “METHODS, COMPOSITIONS, AND COMBINATIONS FOR PREVENTING OR TREATING CANCER RECURRENCE” (VUJA DE SCIENCES, INC., priority 2022, published 2025)

Test system: MG63.3 OS cell line
Test: 2D growth / cytotoxicity by MTT, MG63.3
Conditions: MG63.3, MTT, 72 h, replicates=3
Method: The number of viable cells present in 2D culture was determined by MTT as previously reported. Briefly, cells were plated in 96-well plates at 2,000 cells/well and incubated at 37° C. for 24 h. After 24 h, the media was replaced with fresh media containing drugs at the desired concentrations (10 pM-10 μM) and incubated at 37° C. for 72 h. After 72 h, MTT reagent (20 L/well of a 5 mg/mL stock solution in sterile water; Sigma, St. Louis, MO) was added to each well and the plate was incubated at 37° C. for 2 h. DMSO ([…]) was then added to each well to solubilize the formazan crystals.
The resulting absorbance was measured at 490 nm via plate reader (Molecular Devices, San Jose, CA). DMSO (0.1%) was used as vehicle control, while 20 μM rapamycin was used as a positive cell-kill control. The experimental conditions were conducted in triplicate and each experiment was repeated three times. Regression lines and IC50's were calculated using a four-parameter variable slope nonlinear fit in GraphPad Prism.

CO[C@@]12[C@H](COC(N)=O)C3=C(C(=O)C(C)=C(N)C3=O)N1C[C@@H]1N[C@@H]12 [mitomycin C]
doses exhibiting cytotoxicity on 2D growth: > 200 nM
